SMILES strings stand for the structures. The list shows a part of the results. Measured potencies and affinities stand elsewhere. Results filed as inconclusive are left out. The source made the active and inactive calls. No rule for the calls is given here.

The nature of this assay: Vibrio cholerae quorum sensing activators, luminescence (AID 686977). Particulars: V. cholerae quorum sensing reporter, 6 h, dose 10, dose unit µg/mL, active compounds read high.
Turning to `NC(=O)Nc1ccc([As](=O)(O)O)cc1`, the luminescence was inactive: 0.

(Values after PubChem BioAssay AID686977 (Southern Research Specialized Biocontainment Screening …, 2013).)
